Results: patent US7582611B2, “Motilide compounds” (Pfizer Inc., priority 2005, dated 2009)

By UniProt entry, the sequences of proteins in these tests, tags left out. Residues count along the entry.
UniProt G1T803, 1-400: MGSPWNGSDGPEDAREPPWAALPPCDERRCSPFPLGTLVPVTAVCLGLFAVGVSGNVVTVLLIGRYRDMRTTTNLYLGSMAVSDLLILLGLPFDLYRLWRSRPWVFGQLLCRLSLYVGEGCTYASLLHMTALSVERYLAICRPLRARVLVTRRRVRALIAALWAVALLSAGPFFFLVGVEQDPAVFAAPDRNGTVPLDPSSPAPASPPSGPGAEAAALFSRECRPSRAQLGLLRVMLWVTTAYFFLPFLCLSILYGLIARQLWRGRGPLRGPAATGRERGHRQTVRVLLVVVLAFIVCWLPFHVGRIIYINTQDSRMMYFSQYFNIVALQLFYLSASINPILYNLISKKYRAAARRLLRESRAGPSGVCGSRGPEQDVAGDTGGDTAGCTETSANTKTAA

Biological target: Motilin Receptor (Oryctolagus cuniculus, UniProt G1T803)
Assay: Tissue based assay for motilin agonist potency (rabbit duodenum contractility)
Details: read-out: Motilin Receptor Agonist Activity (EC50); rabbit duodenum strips, contraction normalized to 1 μM carbachol

Compound `CC[C@H]1OC(=O)[C@H](C)[C@@H](O[C@H]2C[C@@](C)(OC)C[C@H](C)O2)[C@H](C)[C@@H](O[C@@H]2O[C@H](C)C[C@H](N(C)C(C)C)[C@H]2O)[C@](C)(O)C[C@@H](C)[C@H](OCC(N)=O)[C@H](C)[C@@H](O)[C@]1(C)O` has an EC50 of 36 nM.
